Measured values published in article PMC6044831 (ACS Omega, 2018).

How the values were obtained:
[1] = Biodistribution of radioiodinated HSA in normal ICR male mice; format: in vivo; conditions: iv tail vein, 1 μCi, n = 5, gamma counter
[2] = cited from earlier work

Substance | accumulation of radioactivity in the thyroid (indicates in vivo deiodination) ([1]; 24 h post iv injection) | accumulation of radioactivity in the thyroid (indicates in vivo deiodination) ([1]; 36 h post iv injection) | time stable at high temperature ([2]; 60 °C) | pH levels at which stable [2]
[^125I] 10: HSA radioiodinated via a tyrosine ring using [^125I] NaI and chloramine-T [reference compound] | 255.1 ± 66.21 % ID/g | 395.2 ± 59.98 % ID/g | – | –
HSA: human serum albumin protein purchased from Sigma-Aldrich | – | – | 10 h | 4–9
